Data: patent publication US20160303258A1, “COMPOUNDS AND COMPOSITIONS FOR IMAGING GCC-EXPRESSING CELLS” (MILLENNIUM PHARMACEUTICALS, INC., priority 2013, published 2016)
pKd: −log10 of the molar value. Like-named read-outs stand apart in the source and are kept apart here.

Chains of the proteins cited; added tags and fusions are not shown. Residues count along the entry.
UniProt P25092, 24-1073: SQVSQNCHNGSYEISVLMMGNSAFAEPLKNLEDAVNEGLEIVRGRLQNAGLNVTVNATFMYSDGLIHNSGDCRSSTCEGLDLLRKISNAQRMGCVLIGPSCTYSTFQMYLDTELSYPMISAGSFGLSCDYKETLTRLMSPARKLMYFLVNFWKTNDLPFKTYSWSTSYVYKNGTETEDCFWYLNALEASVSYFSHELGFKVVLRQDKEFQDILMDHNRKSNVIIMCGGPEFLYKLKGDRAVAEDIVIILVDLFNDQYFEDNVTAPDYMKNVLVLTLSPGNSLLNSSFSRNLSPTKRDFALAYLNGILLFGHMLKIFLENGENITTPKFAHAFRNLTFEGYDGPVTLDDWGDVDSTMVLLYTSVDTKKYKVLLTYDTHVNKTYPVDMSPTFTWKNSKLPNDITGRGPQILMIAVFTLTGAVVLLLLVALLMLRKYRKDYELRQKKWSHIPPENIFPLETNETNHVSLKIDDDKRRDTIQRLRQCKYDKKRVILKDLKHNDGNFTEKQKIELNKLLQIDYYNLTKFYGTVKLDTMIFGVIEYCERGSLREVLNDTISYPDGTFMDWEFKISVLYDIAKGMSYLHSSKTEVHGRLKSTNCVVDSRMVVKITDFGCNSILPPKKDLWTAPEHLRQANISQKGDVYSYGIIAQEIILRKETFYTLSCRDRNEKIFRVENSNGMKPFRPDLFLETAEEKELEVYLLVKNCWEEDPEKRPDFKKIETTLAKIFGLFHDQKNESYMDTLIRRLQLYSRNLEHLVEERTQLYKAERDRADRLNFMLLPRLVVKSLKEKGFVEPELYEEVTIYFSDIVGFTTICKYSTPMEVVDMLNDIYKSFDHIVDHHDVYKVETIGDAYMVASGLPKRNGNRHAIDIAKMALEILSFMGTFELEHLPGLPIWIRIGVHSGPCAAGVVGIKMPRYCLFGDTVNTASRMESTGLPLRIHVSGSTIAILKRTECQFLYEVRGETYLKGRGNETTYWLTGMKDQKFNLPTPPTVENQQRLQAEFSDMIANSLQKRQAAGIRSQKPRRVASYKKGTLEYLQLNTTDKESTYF

Columns and labels:
erythrocyte = assay: In vitro hemolysis assay; assay type: cell-based; details: decayed nonradioactive DP, 3.5 μg/mL
Method: Local tolerance of decayed nonradioactive [^68Ga]MLN6907 DP and MLN6907 DSP was evaluated using an in vitro hemolysis assay and as part of the GLP-compliant 2-week, repeat-dose toxicology studies, respectively.

[1] = biological target: T1, GCC on HEK-293 GCC clone 2 cells (Homo sapiens, UniProt P25092); assay: Antigen surface density (Bmax) from in vivo competitive binding in the mouse model
T1 construct: expressed in transfected cells; host or cells: HEK-293 GCC Clone 2 (GCC-expressing HEK-293 cells)
Excerpt: In contrast, [^68Ga]MLN6907 accumulates in a tumor at high levels. […] Levels of [^68Ga]MLN6907 in the kidney are high even in the presence of unlabeled competitor, indicating excreted through the kidneys, and that this excretion is not dependent on GCC receptors.
Bmax is the antigen surface density as determined by a competitive binding study using [^68Ga]MLN6907. The H-score is the staining intensity when GCC is detected by immunohistochemistry. In general, the Bmax and H-scores correlate.
(§1) The KD of MLN6907 for cell-surface GCC was calculated using an in vitro competitive binding assay with HEK-293 GCC clone 2 cells (FIG. 13). Antigen surface density of GCC on HEK-293 GCC clone 2 cells was estimated in vitro by Western blotting, and in vivo in the mouse model (FIG. 16). Decreased [68Ga]MLN6907 uptake in the tumor results from GCC receptor competition from added unlabeled peptide. […] The tumor uptake of [^68Ga]MLN6907 differed in tumors with varying levels of GCC expression and phenotype and is reflected in the initial in vivo calculated Bmax values.

cell-surface GCC = biological target: T2, cell-surface GCC (Homo sapiens, UniProt P25092); assay: In vitro competitive binding assay with HEK-293 GCC clone 2 cells (KD); details: read-out: KD Affinity
T2 construct: expressed in transfected cells; host or cells: HEK-293 GCC Clone 2 (GCC-expressing HEK-293 cells)
Method: FIG. 13 depicts the results of a competitive binding study showing the KD of MLN6907 for GCC on the surface of HEK-293 GCC clone 2 cells.
as §1

[2] = Internalization rate and residualization study; assay type: cell-based
Method: The upper curve depicts the amount of intracellular MLN6907, while the lower curve depicts the amount of surface-bound MLN6907.
Some parameters were known at the outset of the study, and others were determined experimentally. In these experiments, Indium-111 was used as a surrogate for Gallium-68 because the longer half-life of Indium was helpful in conducting some longer-duration assays.
as §1

[3] = Effect of mass dose on tumor uptake, biodistribution in HEK-293 GCC Clone 2 xenograft mice; assay type: in vivo; details: female, CB-17 SCID, mouse, 0.01 ug, 0.01 μg mass, 1 hour postdose
Method: An additional in vivo study was conducted using HEK-293 GCC clone 2 human embryonic kidney tumor xenografts in female CB-17 SCID mice to evaluate the effect of increasing the mass dose of [^68Ga]MLN6907 DP on tumor uptake. [68Ga]MLN6907 DP was administered to female CB-17 SCID mice bearing HEK-293 GCC Clone 2 HEK tumor xenografts at a mass of 0.005 to 0.50 μg (FIG. 12).

[4] = Blood pharmacokinetics in mouse model; assay type: in vivo; details: blood half-life, mouse
Method: FIG. 15. […] The y axis is the injected dose (% ID) per gram of tissue. In all three systems tested, blood clearance of the compound is rapid.
as §1

[5] = Effective radiation dose estimate using OLINDA/EXM software; design: species or system human
Excerpt: Using OLINDA/EXM software, the effective dose was estimated to be 0.0131 mSv/MBq (1 mCi=37 MBq) in adult human male and 0.0139 mSv/Mbq in adult human female.

GCC-293 tumor = assay: In vivo tolerability and tumor growth study in tumor-bearing GCC-293 mice
Method: Following completion of the biodistribution study, an in vivo tolerability study was conducted in female tumor-bearing GCC-293 mice. Initially, 60 tumor bearing mice were randomized based on tumor size into one of four groups. Each group (n=8 animals per group) was characterized by its drug intervention and/or dose. Animals assigned to group 1 were administered 3 doses of 140 μCi ^213Bi-DOTA-Ahx-STp(5-18), intravenously (IV) every other day (Q2D) on days 0, 2 and 4. Animals in group 2 were administered 3 doses of 50 μCi ^213Bi-DOTA-Ahx-STp(5-18) IV Q2D on days 0, 2, and 4. Animals in group 3 were administered vehicle (0.1 M HCl/0.1 NaI, Tris, ascorbic acid, ultra-pure water, ethanol, and DTPA in exact proportion to labeled drug brought up in PBS; 100 μL) IV Q2D on days 0, 2, and 4 and served as negative controls. Lastly, animals in group 4 were administered 3 doses of 7.5 mg/kg of a GCC-targeting antibody drug conjugate once weekly for three weeks for a total of 3 doses on days 0, 7 and 14 and served as positive controls. Following dosing, tumor caliper measurements and body weights were recorded three times a week for 21 days or until animals were sacrificed (animals were sacrificed if tumor size exceeded 2000 mm^3 or body weight loss exceeded 20%). At the time of sacrifice, select tissues were collected from each animal and fixed in formalin for potential future IHC analysis.
Tumor caliper measurements were recorded two times a week to estimate tumor volumetric changes post dosing for animals in the tolerability study. Tumor caliper measurements were recorded in units of mm and later converted to a unit of volume, mm^3, and fold change was calculated using the equations below: […]
For experiment 2, any animal whose tumor grew greater than 2000 mm^3 or body weight decreased greater than 20% were euthanized in extremis.

[6] = Ex vivo biodistribution of 213Bi-labeled peptide in naive and tumor bearing mice; details: over 3 h
Method: A biodistribution study was first conducted in 24 female mice to observe the ex vivo biodistribution of ^213Bi-DOTA-Ahx-STp(5-18). All tumor bearing (GCC) mice were randomized into n=4×3 groups and all naïve mice were randomized into n=4×3 groups. Due to issues with the gamma counter device, some data was lost, reducing the study to 20 animals total (n=12 tumor bearing; n=8 naïve). All mice were administered ^213Bi-DOTA-Ahx-STp(5-18) intravenously (IV) and animals were sacrificed at the following time points post injection: 15 minutes, 1 and 3 hours. The following tissues were resected for gamma counting to determine the tracer-derived radioactivity per unit tissue: tumor, blood, heart, kidney, liver, lungs, spleen, pancreas, bladder, small intestine, large intestine, stomach, bone, and muscle. […]
All resected tissues from the biodistribution study were analyzed by EG&G Wallac 1480 Wizard 3″ gamma counter to determine the ^213Bi-DOTA-Ahx-STp(5-18) derived radioactivity. The following tissues were analyzed: tumor, blood, heart, kidneys, liver, lungs, spleen, pancreas, bladder, small intestine, large intestine, stomach, bone, and muscle. Data were recorded in units of counts per minute (CPM) and later converted to units of μCi for presentation in activity concentration units of percent injected dose per gram (% ID/g).

[7] = Dosimetry: imparted dose of 213Bi-labeled peptide; assay type: in vivo, mice; details: for imparted dose: 3 × 140 uCi doses on days 0, 2, and 4
[8] = Low Dose (3 x 50 μCi) vs Negative Control, Day 22

For `CC(C)C[C@@H]1NC(=O)[C@H](CCC(=O)O)NC(=O)[C@@H]2CSSC[C@@H]3NC(=O)[C@H](C)NC(=O)[C@@H]4CCCN4C(=O)[C@H](CC(N)=O)NC(=O)[C@H](CSSC[C@H](NC(=O)CCCCCNC(=S)Nc4ccc(C[C@H]5CN(CC(=O)O)CCN(CC(=O)O)CCN(CC(=O)O)CCN5CC(=O)O)cc4)C(=O)N2)NC(=O)[C@H](CSSC[C@@H](C(=O)N[C@@H](Cc2ccc(O)cc2)C(=O)O)NC(=O)CNC(=O)[C@H](C)NC3=O)NC1=O` [[^68Ga]MLN6907 DP, metal not drawn], which erythrocyte hemolysis (erythrocyte) is on record?
Its erythrocyte hemolysis is “no erythrocyte hemolysis”.

And the “Bmax Antigen surface density (HEK-293 GCC Clone 2)” value [1]?
Its value is ~14,000 (in vivo).

What about the pKd (cell-surface GCC) of the same compound?
The pKd was 8.49.

What about the “T1/2, kresid Residualization rate” value ([2]; Indium-111 used as surrogate in longer assays) of the same compound?
The value was >24 h.

And the “T1/2, ke Half-life of internalization” value ([2]; [111In]MLN6907 as surrogate (FIG. 14))?
Its value is 0.933 h.

What about the tissue uptake at 1 h ([3]; blood, read-out: uptake in blood) of the same compound?
Its tissue uptake at 1 h is 0.98 %ID/g.

And the tissue uptake at 1 h ([3]; kidney, read-out: uptake in kidney)?
Its tissue uptake at 1 h is 7.68 %ID/g.

And the tissue uptake at 1 h ([3]; liver, read-out: uptake in liver)?
Its tissue uptake at 1 h is 0.7 %ID/g.

What about the tissue uptake at 1 h ([3]; tumor (maximal uptake), read-out: uptake in tumor) of the same compound?
The tissue uptake at 1 h was 7.43 %ID/g.

And the tissue to tissue ratio at 1 h ([3]; tumor / blood, read-out: tumor-to-tissue ratio, blood)?
The tissue to tissue ratio at 1 h was 7.7.

And the tissue to tissue ratio at 1 h ([3]; tumor / kidney, read-out: tumor-to-tissue ratio, kidney)?
Its tissue to tissue ratio at 1 h is 0.98.

What about the tissue to tissue ratio at 1 h ([3]; tumor / liver, read-out: tumor-to-tissue ratio, liver) of the same compound?
The tissue to tissue ratio at 1 h was 10.8.

What about the “PK In vivo blood PK” value [4] of the same compound?
The value was 26 min.

What about the effective dose ([5]; adult human female) of the same compound?
Its effective dose is 0.0139 mSv/Mbq.

What about the effective dose ([5]; adult human male) of the same compound?
The effective dose was 0.0131 mSv/MBq.

With `CC(C)C[C@@H]1NC(=O)[C@H](CCC(=O)O)NC(=O)[C@@H]2CSSC[C@@H]3NC(=O)[C@H](C)NC(=O)[C@@H]4CCCN4C(=O)[C@H](CC(N)=O)NC(=O)[C@H](CSSC[C@H](NC(=O)CCCCCNC(=S)Nc4ccc(C[C@H]5CN(CC(=O)O)CCN(CC(=O)O)CCN(CC(=O)O)CCN5CC(=O)O)cc4)C(=O)N2)NC(=O)[C@H](CSSC[C@@H](C(=O)N[C@@H](Cc2ccc(O)cc2)C(=O)O)NC(=O)CNC(=O)[C@H](C)NC3=O)NC1=O` [^213Bi-DOTA-Ahx-STp(5-18), metal not drawn] as the compound, how does the “T/C, tumor growth fold change from baseline” value (“T/C, tumor growth fold change” for short) (GCC-293 tumor; High Dose (3 x 140 μCi) vs Negative Control, day 11) read?
The value was 0.24 (day 11).

What about the tolerability (GCC-293 tumor; High Dose, 3 doses of 140 μCi IV Q2D days 0, 2, 4) of the same compound?
Its tolerability is “not tolerated well”.

And the “body weight loss requiring euthanasia of all mice” value (GCC-293 tumor; High Dose, 3 doses of 140 μCi, over a 14 day period)?
The value was > 20%.

What about the “T/C, tumor growth” value (GCC-293 tumor; [8]) of the same compound?
Its value is 1.04 (Day 22).

What about the “T/C, tumor growth fold change” value (GCC-293 tumor; [8]) of the same compound?
Its value is 0.52 (Day 22).

What about the “T/C, tumor growth fold change” value (GCC-293 tumor; Low Dose (3 x 50 μCi) vs Negative Control, day 11) of the same compound?
Its value is 0.95 (day 11).

And the tolerability (GCC-293 tumor; Low Dose, 3 doses of 50 μCi IV Q2D days 0, 2, 4)?
Its tolerability is “improved tolerability”.

What about the “probability of survival compared with the negative control” value (GCC-293 tumor; Low dose (3 x 50 μCi), Kaplan Meier) of the same compound?
Its value is “higher probability of survival”.

And the tissue uptake [6]?
The tissue uptake was “Highest uptake was seen in tumor, kidney, and bladder”.

And the AUC ([7]; Blood)?
Its AUC is 0.162 h.

And the “imparted dose per activity” value ([7]; Blood)?
Its value is 35.8 mGy/MBq.

And the imparted dose ([7]; Blood)?
Its imparted dose is 556 mGy.

And the AUC ([7]; Kidney)?
The AUC was 0.042 h.

What about the “imparted dose per activity” value ([7]; Kidney) of the same compound?
Its value is 77.9 mGy/MBq.

And the imparted dose ([7]; Kidney)?
Its imparted dose is 1220 mGy.

What about the AUC ([7]; Tumor) of the same compound?
The AUC was 0.068 h.

What about the “imparted dose per activity” value ([7]; Tumor) of the same compound?
Its value is 20.7 mGy/MBq.

And the imparted dose ([7]; Tumor)?
Its imparted dose is 322 mGy.
